Measurements published in patent US7507792B2, “MDA-7 proteins and methods of use thereof” (The Trustees of Columbia University In The City of New York, priority 1993, dated 2009).

Legend:
Type in all cases: cell-based, human
[1] = tested on: mda-4; experiment: mda-4 expression (Northern blotting); conditions: H0-1
Description: (§1) FIG. 19 Effect of various treatment protocols on mda expression in H0-1 cells. IFN-β (2,000 units/ml, 24 hours); MEZ (10 ng/ml, 24 hours); IFN-β+MEZ (2,000 units/ml+10 ng/ml, 24 hours); phenyl butyrate (PB) (4 mM, 24 hours, 4 d, 7 d); γ Rad (γ irradiation) 3 gray, 24 hours, Act D (actinomycin D) (5 μg/ml, 2 hour→24 hours assay); Adriamycin (Adr) (0.1 μg/ml, 24 hours); Vincristine (Vin) (0.1 μg/ml, 24 hours); cis-plt (cis-platinum) (0.1 μg/ml, 24 hours); TNF-α (tumor necrosis factor-α) (100 units/ml, 24 hours); UV (10 joules/mm^2, 2, 14 and 24 hours assay); VP-16 (5 μg/ml, 24 hours); IFN-α (2,000 units/ml, 24 hours); and IFN-α+MEZ (2,000 units/ml+10 ng/ml, 24 hours).
(§2) The mass excision of the library was performed using ExAssist helper phage as described above. The SOLR strain of Escherichia coli and cDNA phagemids were mixed at 37° C. for 15 min and plated onto LB plates containing ampicillin and IPTG/X-gal. White colonies were chosen at random, isolated and grown in LB medium. Plasmid minireps and restriction enzyme digestions were performed to confirm the presence of inserts. The inserts were isolated and used as robes for Northern blotting analysis (5,25). […]

[2] = tested on: mda-9; experiment: mda-9 expression (Northern blotting); conditions: H0-1
Description: as §1, §2

[3] = tested on: H0-1 cells; experiment: Northern blotting of H0-1 RNA probed with mda cDNA clones; conditions: 24 hours
Description: FIG. 10 Northern blot analyses of untreated control and IFN-β, MEZ and IFN-β+MEZ treated H0-1 cells probed with cDNA clones isolated from an H0-1 IFN-β+MEZ (Ind^+) subtracted cDNA library. RNA was isolated from cells untreated or treated for 24 hours with IFN-β (2000 units/ml), MEZ (10 ng/ml) or IFN-β+MEZ (2000 units/ml and 10 ng/ml). Ten micrograms of total cellular RNA were separated on a 1% agarose gel, transferred to nylon membranes and then hybridized individually with radioactive probes prepared using appropriate inserts from the cDNA clones. The series of cDNAs isolated from inducer treated H0-1 cells have been tentatively called mda, melanoma differentiation associated, genes, Glyceraldehyde phosphate dehydrogenase (GAPDH) was used as a control for uniform loading and expression of the RNA samples.
The mass excision of the library was performed using ExAssist helper phage as described above. The SOLR strain of Escherichia coli and cDNA phagemids were mixed at 37° C. for 15 min and plated onto LB plates containing ampicillin and IPTG/X-gal. White colonies were chosen at random, isolated and grown in LB medium. Plasmid minireps and restriction enzyme digestions were performed to confirm the presence of inserts. The inserts were isolated and used as robes for Northern blotting analysis (5,25). Total cellular RNA was prepared from H0-1 cells treated with IFN-β (2000 units/ml), MEZ (10 ng/ml), and IFN-β plus MEZ (2000 units/ml plus 10 ng/ml), electrophoresed in 0.8% agarose gels and transferred to nylon membranes (Amersham, Arlington Heights, Ill.). Radiolabeled probes were generated by random oligonucleotide priming (25). Prehybridization, hybridization, posthybridization washes, and autoradiography were performed as described (5,18,25).

[4] = tested on: H0-1 cells; experiment: Northern blotting analysis of steady-state mRNA levels; conditions: 96 h, FIG. 1 concentrations
Description: Steady-state levels of specific mRNAs were determined by Northern blotting analysis of total RNA probed with appropriate ^32P-labeled gene probes as described previously (14-16). RNAs were analyzed from cells treated with inducer for 24 hours, treated for 24 hours with inducer followed by growth for 72 hours in the absence of inducer, or treated continuously for 96 hours with the inducer. The concentration of inducing compounds used were the same as those used for growth studies. The effect of conditioned medium on gene expression changes was determined by treating H0-1 cells for 24 hours with a 1:2 dilution of conditioned medium (equal volumes of conditioned medium and DMEM supplemented with 10% fetal bovine serum (DMEM-10) or for 96 hours with a 1:4 dilution of conditioned medium (1 vol. of conditioned medium to 3 vol. of DMEM-10). The probes used in the present study were specific for β-actin (17), γ-actin (17), c-jun (18), c-myc (19), fibronectin (20), gro/MGSA (21), HLA Class I antigen (22), HLA Class II antigen (HLA-DRβ) (22), α5 integrin (23), β1 integrin (24), ISG-15 (25), ISG-54 (25), jun-B (26), and tenascin (27). Northern blots were also probed with a ^32P-labeled GAPDH gene (15) to verify similar mRNA expression under the various experimental conditions. Following hybridization, the filters were washed and exposed for autoradiography.

[5] = 24 hours, doses of FIG. 19, phenyl butyrate 24 hours, 4 days or 7 days
[6] = 96 hours, doses of FIG. 15 legend

B1: IFN-β: Recombinant human IFN-β, with a serine substituted for a cysteine at position 17 of the molecule (protein)
chain: MSYNLLGFLQRSSNFQCQKLLWQLNGRLEYCLKDRMNFDIPEEIKQLQQFQKEDAALTIYEMLQNIFAIFRQDSSSTGWNETIVENLLANVYHQINHLKTVLEEKLEKEDFTRGKLMSSLHLKRYYGRILHYLKAKEYSHCAWTIVRVEILRNFYFINRLTGYLRN
mda-4 expression [1, 5]: increased expression
mda-4 expression [1, 6]: No or only a small change in expression
mda-9 expression [2, 5]: Increased expression
mda-9 expression [2, 6]: No change in mda-9 expression
mda-1 expression [3]: increased expression
mda-2 expression [3]: increased expression
mda-13 expression [3]: increased expression
HLA Class I antigen gene expression [4]: did not significantly alter
fibronectin expression [4]: least effective
induction of gro/MGSA gene expression [4]: did not
tenascin expression [4]: decreased tenascin expression
